Assay results published in ChEMBL document CHEMBL5257147 (ACS Med Chem Lett, 2023).

Tested on: Epidermal growth factor receptor (Homo sapiens), P00533 [C797S,L858R]
Assay: Potency index, ratio of osimertinib IC50 to test compound IC50 for inhibition of EGFR L858R/C797S mutant (unknown origin) using TK-substrate preincubated with enzyme for 30 mins followed by substrate and ATP addition for 20 mins by HTRF assay
Conditions: time 50.0 min

Ratio IC50: > 10
Structure (SMILES): C=CC(=O)Nc1cc(Nc2ncc(C(=O)OC(C)C)c(-c3cn(C)c4ccccc34)n2)c(OC)cc1N(C)CCN(C)C [MOBOCERTINIB]
